The experiment deals with GLP-1R (Homo sapiens, UniProt P43220). Description: GLP-1R Activation - cAMP Assay. The following applies: read-out: GLP-1R Activation - Assay EC50; cAMP increase in CHO cells stably expressing GLP-1R; each compound run on one of the two cAMP assays (Assay 1 or Assay 2, not specified). The procedure:
GLP-1R Activation—cAMP Assay 1
GLP-1R activation by compounds of the present disclosure were quantified by measuring cAMP increase in CHO cells stably expressing GLP-1R (MultiSpan product #C1267-1a). The cells were harvested and plated in growth medium (DMEM/F-12 (Corning product #10-090-CV) supplemented with 10% FBS (HyClone product #SH30071-03), penicillin/streptomycin (Corning product #30-002CI) and 10 μg/ml puromycin (Gibco product #A11138-03)) at 1,000 cells/well in a 384-well plate (Greiner product #781080). The cells were then incubated overnight at 37° C., 5% CO2. The next day, the medium was removed and the cells were washed with DPBS (Corning product #21-031-CM) before adding the assay medium (HBSS, Corning product #21-023-CV) with 20 mM Hepes (Gibco product #15630-080) and 0.1% BSA (Rockland Immunochemicals product #BSA-1000)). Following the medium change, the cells were incubated for 1 hour at 37° C., 5% CO2. The tested GLP-1 compound was added to the cells in a 10-point dose response followed by a 30 minutes incubation at 37° C., 5% CO2. cAMP concentration increase was then detected using Cisbio's cAMP Gs Dynamic Kit (product #62AM4PEC) according to the manufacturer's protocol. The response was plotted against the log of the agonist concentration and fitted to a sigmoidal equation to determine the EC50.

Sequences of proteins named here, by UniProt entry; tags and fusion partners are left off. Residues count along the entry.
UniProt P43220, 24-463 limits assumed: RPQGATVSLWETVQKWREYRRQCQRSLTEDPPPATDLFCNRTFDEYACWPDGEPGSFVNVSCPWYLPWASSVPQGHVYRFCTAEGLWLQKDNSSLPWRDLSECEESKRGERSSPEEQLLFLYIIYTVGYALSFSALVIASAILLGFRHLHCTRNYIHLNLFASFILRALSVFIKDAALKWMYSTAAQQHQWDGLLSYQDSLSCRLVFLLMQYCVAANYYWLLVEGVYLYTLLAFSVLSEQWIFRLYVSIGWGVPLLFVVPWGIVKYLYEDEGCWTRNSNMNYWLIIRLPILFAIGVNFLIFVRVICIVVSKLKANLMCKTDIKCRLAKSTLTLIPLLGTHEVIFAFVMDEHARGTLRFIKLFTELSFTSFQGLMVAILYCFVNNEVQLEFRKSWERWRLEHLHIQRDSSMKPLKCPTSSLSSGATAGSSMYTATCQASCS

pEC50: −log10 of the molar value. Some compounds may have been tested in ways that are not shown here.

Broadly, the pEC50 is the negative decadic logarithm of the EC50, by convention in mol/L. `N#Cc1ccc(COc2cccc(-c3cc(F)c(Cc4nc5ccc(C(=O)O)cc5n4CC4(N)CCOC4)cc3F)n2)c(F)c1` (stereo not shown): the negative logarithm of the EC50 (pEC50) is 9.14.
